PubChem BioAssay AID504891 (National Center for Advancing Translational Sciences (NCATS), 2011)
Among all 390,000 compounds or so, about 35 (0.009%) were called active. All entries are inconclusive by the source's own rule. Clear calls are listed elsewhere. Calls come from the whole dose curve; as a rule, active = well fitted inhibition curve with a large enough effect in the polarisation, with a control signal flat (not every such curve was filed as active); inconclusive = small, poorly fitted or top-dose-only effect, or effect the other way, or a change in a side signal; inactive = no such curve, though single readings can be large or run the other way; the % refers to the polarisation.

Sequences of proteins named here, by UniProt entry; tags and fusion partners are left off.
UniProt Q13526, whole entry, looked up: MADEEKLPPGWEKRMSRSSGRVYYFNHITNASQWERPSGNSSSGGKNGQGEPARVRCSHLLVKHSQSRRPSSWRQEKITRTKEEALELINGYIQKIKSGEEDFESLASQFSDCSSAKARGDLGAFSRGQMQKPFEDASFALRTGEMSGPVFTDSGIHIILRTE

Each compound was assayed against Peptidyl-prolyl cis-trans isomerase NIMA-interacting 1 (Homo sapiens) (UniProt Q13526) (assay: qHTS Assay to Find Inhibitors of Pin1). Conditions: Pin1 FP peptide displacement, HiFluor488, 10 min.
Potency is the fitted concentration of half-maximal effect.

| SMILES | Potency |
| --- | --- |
| O=P1(Nc2ccc(Br)cn2)COc2ccccc2OC1 | inconclusive: 95.3 µM |
| CN(CCCl)Cc1cc(Cl)c(NC2=NCCN2)c(Cl)c1 | inconclusive: 50.1 µM |
| Cc1ccccc1CN(C)C(=O)COC(=O)C(O)(c1ccccc1)c1ccccc1 | inconclusive: 84.9 µM |
| O=[N+]([O-])c1ncn(CCn2ncnc2[N+](=O)[O-])n1 | inconclusive: 89.1 µM |
